pIC50: −log10 of the molar value.
Biological target: Plasminogen activator inhibitor 1 (Mus musculus, UniProt P22777)
Assay: Enzymatic Assay
Details: pH 7.8; 23 °C

The chains behind the UniProt entries cited, without tags or fusion partners. Residues count along the entry.
UniProt P22777, 23-402 limits assumed: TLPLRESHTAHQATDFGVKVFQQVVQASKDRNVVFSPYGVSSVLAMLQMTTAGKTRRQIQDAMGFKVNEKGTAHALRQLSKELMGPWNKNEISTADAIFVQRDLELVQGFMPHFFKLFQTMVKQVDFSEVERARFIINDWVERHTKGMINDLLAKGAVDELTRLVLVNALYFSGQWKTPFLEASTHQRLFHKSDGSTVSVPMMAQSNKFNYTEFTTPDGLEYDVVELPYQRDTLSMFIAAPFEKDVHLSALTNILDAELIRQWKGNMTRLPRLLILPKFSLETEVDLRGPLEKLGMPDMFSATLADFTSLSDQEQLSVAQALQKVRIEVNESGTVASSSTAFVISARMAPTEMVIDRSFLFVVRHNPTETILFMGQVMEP

**Q.** O=C(OC[C@H]1OC(OC(=O)c2cc(O)c(O)c(O)c2)[C@H](OC(=O)c2cc(O)c(O)c(O)c2)[C@@H](OC(=O)c2cc(O)c(O)c(O)c2)[C@H]1OC(=O)c1cc(O)c(O)c(O)c1)c1cc(O)c(O)c(O)c1 (stereo partly specified) [CDE-066] was tested. Which pIC50 did it give?
**A.** The pIC50 was 8.00.
